# Source: ChEMBL document CHEMBL1142545, “1,3-Dialkyl-8-(hetero)aryl-9-OH-9-deazaxanthines as potent A2B adenosine receptor antagonists: design, synthesis, structure-affinity and structure-selectivity relationships” (Bioorg Med Chem, 2008)
# Key:
# [1] = Solubility in 50 mM Tris/HCl buffer at pH 7.4 by turbidimetric method; format: physicochemical
# Procedure, shortened: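 DMSO stock added stepwise (about 14 additions) to 50 mM Tris/HCl pH 7.4 at room temperature, final DMSO below 5%; precipitation detected as UV absorbance rise at 600–800 nm; solubility limit from bilinear fit of absorbance versus DMSO.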
# Adenosine receptor A2a = Adenosine receptor A2a (Homo sapiens, UniProt P29274); experiment: Displacement of [3H]ZM241385 from human cloned adenosine A2A receptor expressed in human HeLa cells; format: cell-based
# Adenosine receptor A3 = Adenosine receptor A3 (Homo sapiens, UniProt P0DMS8); experiment: Displacement of [3H]NECA from human cloned adenosine A3 receptor expressed in human HeLa cells; format: cell-based
# Adenosine receptor A2b = target: T1, Adenosine receptor A2b (Homo sapiens, UniProt P29275); experiment: Displacement of [3H]DPCPX from human cloned adenosine A2B receptor expressed in HEK293 cells; format: cell-based
# T1 sequence (P29275 whole entry): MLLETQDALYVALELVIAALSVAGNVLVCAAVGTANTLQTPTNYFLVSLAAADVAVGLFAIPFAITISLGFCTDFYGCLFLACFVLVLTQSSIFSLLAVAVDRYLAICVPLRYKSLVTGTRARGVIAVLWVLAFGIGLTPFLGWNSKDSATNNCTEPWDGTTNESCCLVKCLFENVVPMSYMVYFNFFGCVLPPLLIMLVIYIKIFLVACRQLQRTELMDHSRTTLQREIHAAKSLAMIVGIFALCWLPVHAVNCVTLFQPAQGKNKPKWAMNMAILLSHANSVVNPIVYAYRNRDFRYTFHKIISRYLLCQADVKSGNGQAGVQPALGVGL
# [2] = Methanol-water partition coefficient, log K by RP-HPLC; format: physicochemical
# Procedure, shortened: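 Reverse-phase HPLC with water–methanol 40/60 (v/v) mobile phase at 1.0 ml/min; dead time from KI in methanol; retention times in minutes; log k from capacity factor taken as lipophilicity index.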
smiles,measurement,setting,value
CCCn1c(=O)c2[nH]c(-c3ccc(OCC(=O)N4CCN(Cc5ccccc5)CC4)cc3)c(O)c2n(CCC)c1=O,solubility kinetic,[1],10 µg/mL
same,Ki,Adenosine receptor A2a,92 nM
same,Ki,Adenosine receptor A3,891 nM
same,Ki,Adenosine receptor A2b,2.6 nM
same,log K,[2],0.29
